Test results published in paper PMC3613992.

Target: APC/mDia1 complex (SNAP-647-APC-C with SNAP-549-mDia1-C) (UniProt P25054)
Assay: single-molecule TIRF microscopy colocalisation

- percent of APC/mDia1 complexes occupied by LatB-OG-actin: 54.8%
Substance: Oregon Green (OG)-actin (from UniProt P68135 1-377) (natural protein)
